Article PMC12254369, “Small molecule disruption of RARα/NCoR1 interaction inhibits chaperone-mediated autophagy in cancer” (EMBO Molecular Medicine, 2025)

The chains behind the UniProt entries cited, without tags or fusion partners. Residues count along the entry.
UniProt P10276, 176-462 limits assumed: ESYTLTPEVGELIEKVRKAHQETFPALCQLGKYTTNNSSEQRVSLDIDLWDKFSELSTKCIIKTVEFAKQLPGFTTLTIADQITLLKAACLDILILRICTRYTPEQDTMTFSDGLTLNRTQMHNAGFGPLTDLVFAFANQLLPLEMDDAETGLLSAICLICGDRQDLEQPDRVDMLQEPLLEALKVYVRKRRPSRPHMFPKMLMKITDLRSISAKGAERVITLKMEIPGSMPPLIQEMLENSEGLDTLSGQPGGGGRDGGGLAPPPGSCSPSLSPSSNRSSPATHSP

Target: Recombinant RARα LBD (Homo sapiens, UniProt P10276)
Assay: isothermal titration calorimetry
Conditions: 25 °C, pH 8.0, 25 mM sodium phosphate, 150 mM NaCl, 1 mM TCEP; RARα injected into compound

O=C(CSc1ncc(CO)n1Cc1ccc(F)cc1)Nc1ccc(OC(F)(F)F)cc1
Kd: 2000 nM
